Patent US20240115662A1, “METHODS OF TREATING HYPOGONADOTROPIC HYPOGONADISM AND COGNITION IMPAIRMENT FOLLOWING A TRAUMATIC BRAIN INJURY” (WISCONSIN ALUMNI RESEARCH FOUNDATION, priority 2021, published 2024)

Columns and labels:
[1] = in vivo; cited from earlier work
[2] = tested on: subject with TBI; assay: Human clinical study, Glasgow Coma Scale (planned); type: in vivo; conditions: hCG 5-200 IU/kg 3 times weekly, 1-18 months; in post-menopausal female with E2 and/or P4
Description: A subject with TBI as tested by the Gleason Coma Scale (GCS) with a score of 12 or less will be administered 3 times weekly a dose of hCG (e.g., 5-200 IU/kg) for 1-18 months. The subject will be retested cognitively on a quarterly basis on the GCS (and by neuroimaging).
Separately, a post-menopausal person with TBI as tested by the Gleason Coma Scale (GCS) with a score of 12 or less will be administered 3 times weekly a dose of hCG (e.g., 5-200 IU/kg) in combination with transdermal administration of E2 and/or P4 (e.g., Estradiol Transdermal Patch, e.g. Vivelle/Minivelle 0.025-0.1 mg/day, or Climara 0.025 to 0.1 mg/day together with transdermal progesterone cream, e.g. ProGest, 10-40 mg/day) for 1-18 months. The subject will be retested cognitively on a quarterly basis on the GCS (and by neuroimaging).

[3] = tested on: hESC; assay: P4 secretion into media from hESC; type: cell-based, human; conditions: hCG 500 mIU/ml, 6 days
Description: The concentration of P4 secreted into the media from hESCs treated ±hCG (500 mIU/ml) for 6 days. Results are expressed as micrograms P4 per microgram cellular protein, mean±SEM, n=3; *P<0.001.
hCG, like LH, is the main regulator of sex steroid synthesis, inducing the production of P4 which is converted into androstenedione/T and finally E2.

In the case of “hCG: heterodimeric glycoprotein hormone (α SEQ ID NO:1, β SEQ ID NO:2); given to the rats as Pregnyl”, the half-life [1] is listed as “about 36 hours”, the “GCS score compared to before treatment or untreated controls” value [2] is listed as “improved score in the GCS test” and the “secretion of P4 from hESC” value [3] is listed as “markedly increased the secretion of P4”.
